Binding of CDR-mutated scFvs to a peptide of the spike HR2 region

Source: Li et al. 2023 (doi:10.1038/s41467-023-39022-2), MIT Lincoln Laboratory and A-Alpha Bio; data file from the FLAb repository.

Antigen: PDVDLGDISGINAS, a 14-residue peptide of the SARS-CoV-2 spike HR2 region.

Parent: Ab-14, a human scFv built as VH, the linker GGGGSGGGGSGGGGS, VL. Only the CDRs of the light chain vary.
VH: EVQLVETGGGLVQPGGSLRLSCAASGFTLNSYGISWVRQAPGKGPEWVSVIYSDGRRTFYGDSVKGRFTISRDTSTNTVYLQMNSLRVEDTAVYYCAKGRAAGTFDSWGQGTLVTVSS
VL: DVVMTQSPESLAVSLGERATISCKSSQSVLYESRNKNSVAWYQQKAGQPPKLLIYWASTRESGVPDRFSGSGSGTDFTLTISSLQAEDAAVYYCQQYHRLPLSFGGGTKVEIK

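This is the validation round: designs drawn from the data on random variants, tested in the same kind of assay. Group labels follow the data file (Ctrl: baseline library sampled from a position-specific scoring matrix, with some repeated check sequences; Rand: our label for a block that the file lists under HC and that is probably the random mutants of the ten best first-round binders; GP: Gaussian process model; HC: hill climbing; Gen: genetic algorithm; Gibbs: Gibbs sampling; a sequence that several methods proposed may carry one label only). AlphaSeq pools MATa yeast showing the antibodies with MATalpha yeast showing the peptide. Binding brings cells together so that they mate, and sequencing counts the barcode pairs among the diploids. Scores were corrected for input abundance and mapped to Kd with protein pairs of known affinity run in the same pool. The assay was run in six technical replicates.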

Positions count from residue 1 of the parent VL; W56E puts E in place of W. This list holds designs with at most six substitutions. The read-out is the apparent dissociation constant on a log10 scale (nM): the lower, the stronger. Where no diploid with the target was found in that replicate, the entry reads "nd": below detection, most likely a poor binder, though not proof of it. The range of this assay differs from that of the first round, and the authors advise against merging the two.

The variant W56E+L100A [Ctrl] gave 1.23, 1.67, nd, nd, nd, 2.24. For S26Q+Q27I+V29Q+L30E+W56H+S62D [GP_HC], the assay gave 0.86, 0.65, 0.91, 1.02, 0.95, 1.15. The variant Q27F+V29G+W56E [GP_HC] gave 0.23, -0.06, -0.14, -0.21, -0.02, -0.30. With S25L+K36H+W56A [Ctrl] the result was -0.16, -0.06, -0.23, -0.34, -0.01, -0.05. The variant S25L+S26P+V29H+W56E [GP_Gen] showed 0.12, -0.03, -0.08, -0.31, -0.17, 0.13. For S33D+W56E+R99A [Ctrl], the assay gave 1.62, 1.50, 1.37, 1.38, 1.88, 1.31. With S25L+S26L+W56N+S62D [GP_HC] the result was 0.33, 0.04, -0.06, -0.18, -0.20, -0.15. With L30S [Ctrl] the result was 1.90, nd, nd, nd, 1.83, nd. The variant S25L+V29D+N35M+W56N+T59Q [GP_Gen] showed 0.57, 0.16, 0.26, 0.05, 0.10, 0.38.

The variant S25L+R34G+W56N [GP_Gen] gave -0.22, -0.09, -0.50, -0.54, -0.26, -0.37. The variant S25L+S26L+N35D+W56H [GP_HC] showed 0.88, 0.70, 0.47, 0.39, 0.43, 0.46. With S26Q+V29Q+K36F+W56D+S62D [GP_HC] the result was 0.16, 0.17, -0.17, -0.24, 0.02, 0.01. With S33E+K36A [Ctrl] the result was nd, 0.66, nd, nd, nd, 1.11. The variant S25L+S26Q+N35M+W56N [GP_Gen] gave 0.22, -0.06, 0.02, -0.09, -0.04, 0.36. For S26A+Q27I+V29D+N35S+W56H [Ctrl], the assay gave 0.18, 0.30, 0.42, 0.02, 0.29, 0.58. For S28M+V29D+K36G+W56D+S62D [GP_Gibbs], the assay gave 0.35, 0.16, -0.11, -0.20, 0.70, 0.28. For K24C+E32S [Ctrl], the assay gave nd, nd, nd, nd, nd, nd. With S25L+S26P+V29T+E61L [GP_HC] the result was 0.36, 0.04, 0.06, 0.13, 0.25, 0.23.

The variant S25L+V29L+W56N [GP_Gen] gave 0.26, 0.18, 0.03, -0.31, 0.01, -0.04. The variant S25L+S26Q+V29P+W56N [GP_Gen] gave -0.03, -0.18, -0.09, -0.17, -0.09, -0.04. The variant S26T+S62A [Ctrl] showed 2.17, 1.68, nd, 2.29, 2.57, nd. With S25Y+Q27I+V29Y+Y31E+E32G+W56E [GP_HC] the result was 0.51, 0.53, 0.41, 0.25, 0.36, 0.86. The variant S25M+R34A+R99C [Ctrl] gave nd, nd, 2.01, nd, 2.16, nd. For S25M+S26E+V29D+Y31L+K36V+W56Q [GP_Gibbs], the assay gave -0.12, -0.38, -0.22, -0.38, -0.40, -0.28. With S25V+V29H+L30D+W56N [GP_Gen] the result was 0.09, -0.20, -0.12, -0.16, 0.02, -0.04. The variant S25M+Q27I+V29Y+S33Y+W56E+R60Y [Rand] showed nd, 3.19, nd, nd, nd, nd. For S25L+S26R+Q27G+V29T+W56N [GP_HC], the assay gave 0.08, -0.17, -0.32, -0.40, -0.10, -0.07.

The variant K24S+S25N+R34Q+H98C+L100N [Ctrl] gave nd, nd, nd, nd, nd, nd. With S25L+S26D+W56N+E61L [GP_Gen] the result was -0.33, -0.42, -0.55, -0.56, -0.39, -0.34. For V29L+L30G+R34S [Ctrl], the assay gave 0.97, 1.00, 1.01, 0.60, 0.68, 0.41. For V29F+W56E+Q96N [GP_HC], the assay gave 1.41, 1.39, 1.23, 1.54, 1.21, 2.20. For S25M+V29W+W56H+S62Q [GP_HC], the assay gave 0.26, -0.02, 0.05, -0.22, -0.05, 0.22. With S25V+V29E+R34G+W56N+T59S [GP_HC] the result was 0.75, 0.32, -0.12, 0.11, 0.24, 0.35.

The parent sequence was in this pool as ten entries: three were never detected, three once, and four in most replicates, with averages from 0.34 to 2.37. Background: pairings of all light chain designs with three empty control strains gave a value in 4% of cases (median 2.64, 5th percentile 1.59). Values in that range, when seen in few replicates, are hard to tell from nonspecific mating. The authors' rule: three or more of the six replicates give a measured affinity, fewer mean a poor binder.